Measurements taken from article PMC4749533, “Scintillation proximity assay (SPA) as a new approach to determine a ligand’s kinetic profile. A case in point for the adenosine A1 receptor” (Purinergic Signalling, 2015).

Sequences of proteins named here, by UniProt entry; tags and fusion partners are left off.
UniProt P30542, whole entry: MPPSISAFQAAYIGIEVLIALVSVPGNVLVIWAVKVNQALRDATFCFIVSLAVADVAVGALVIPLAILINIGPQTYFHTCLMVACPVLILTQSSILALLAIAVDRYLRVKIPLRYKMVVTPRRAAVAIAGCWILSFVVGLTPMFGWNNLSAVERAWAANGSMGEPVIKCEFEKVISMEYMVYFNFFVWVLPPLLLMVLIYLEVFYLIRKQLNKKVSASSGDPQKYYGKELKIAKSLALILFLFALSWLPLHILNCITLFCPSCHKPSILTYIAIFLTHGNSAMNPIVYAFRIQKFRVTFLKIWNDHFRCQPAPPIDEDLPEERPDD

Legend:
[1] = target: T1, human adenosine A1 receptor (hA1R) (Homo sapiens, UniProt P30542); assay: Competition association with [3H]-DPCPX, SPA technology; assay type: binding; settings: 1/k off, 28 °C, 1 mM GTP present for LUF5834, CCPA, NECA
T1 construct: Steve Hill (University of Nottingham, UK); host or cells: CHO cells stably expressing hA1R; membrane preparation
Experimental: (§1) The binding kinetics of unlabeled ligands was quantified using the competition association assay based on the theoretical framework by Motulsky and Mahan.
The membrane-bead mixture was prepared as described under “Radioligand displacement experiments.” Once the membrane-bead mixture was added to the wells of an Isoplate-96 Microplate, measurements of radioligand bound to the receptor were started immediately and continued every 30 s for 2 h, using the 2450 MicroBeta^2 Plate Counter.

[2] = target: T1, human adenosine A1 receptor (hA1R); assay: Competition association with [3H]-DPCPX, filtration assay; assay type: binding; settings: 1/k off, 28 °C, 1 mM GTP present for LUF5834, CCPA, NECA
Experimental: as §1
The competition association assay was initiated by adding membrane aliquots (5 μg per well) at different time points for a total of 2 h in the absence or presence of competing ligand.

## CCNC(=O)[C@H]1O[C@@H](n2cnc3c(N)ncnc32)[C@H](O)[C@@H]1O [NECA, 5′-N-ethylcarboxamidoadenosine]
[1]
  SPA RT: 1.9 ± 0.02 min
[2]
  Filtration assay RT: 1.7 ± 0.1 min
